Values quoted from earlier work, collected in US10357480B2, “Biotin for treating peripheral demyelinating neuropathy” (MedDay Pharmaceuticals, priority 2015, dated 2019).

Test system: patients affected by ALS
Settings: cited from earlier work

## Nc1nc2ccc(OC(F)(F)F)cc2s1 [riluzole]
ALS patients (Mitsumoto et al., 2014)
  prolonged survival, average: 2-3 months
From Wikipedia
  liver damage, people taking the drug: about 10%
